High-throughput results as filed in PubChem.
Only some compounds are listed: those with a hit (about 1.3% of all), similar ones and a draw of the others.
ALOX12 inh: inhibitors of human 12S-lipoxygenase ALOX12; P18054; purified 12hLO, xylenol orange hydroperoxide absorbance; Potency, µM (titrated, usually from 108 µM), for the others: top-dose activity change, negative = inhibition, most hits filed as inhibitors; hit rate 1.1% among 580,000; AID 1671190; further: potency means the concentration at half of the fitted maximal effect; on the % scale 0 is the no-effect control and ±100 the full control effect
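Purified human 12hLO (150 nM final) in 25 mM Hepes, 0.01% Triton X-100, pH 7.0 was preincubated 15 min at room temperature with compound. Then 40 uM arachidonic acid was added, 30 min. Hydroperoxide was read by Fe-XO absorbance ratio 573/405 nm.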
miR-21 FLuc: miR-21 reporter, rising signal | AID 2288 | HeLa miR-21 FLuc reporter, luciferase, 48 h | 340,000 tested, under 10 active | Potency, µM (titrated, usually from 38.3 µM), for the others: at the top dose reporter change, positive = more light; active = well fitted rising curve with a large enough effect; inconclusive = small, poorly fitted or top-dose-only effect; inactive = no such curve, though single readings can be large or run the other way;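 also: % of control where 0% means no effect; miR-21 action dims this reporter so a rising signal means less miR-21 action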
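HeLa cells endogenously expressing miR-21, stably carrying CMV-driven firefly luciferase with a downstream miR-21 binding site, 2000 cells/well. Titrations up to approximately 40 uM, 48 hours; luciferase luminescence read.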
PTHR1 ag: activates the human parathyroid hormone receptor PTHR1. HEK293 GP2 PTHR1 cells, GloSensor cAMP luminescence, 1 h. Q03431. AID 743266. hit rate 0.075% among 410,000. Potency, µM (series often up to 115 µM), for inactives: top-dose activation, hits mostly activators; further: potency means the concentration at half of the fitted maximal effect; nearly all actives have a fitted effect of over 55% in size
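HEK-293-derived GP2 cells expressing PTHR1 and a GloSensor cAMP reporter, 3,000/well, plated overnight, given luciferin plus IBMX (each 0.5 mM as added) for 1 h at 37 °C, then compound for 1 h at 37 °C. Luminescence was read after 15 min at room temperature.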
Giardia killer: kills Giardia lamblia; hit rate 0.15% among 340,000; activity change, % at 7.66 µM, hits read low; Giardia lamblia trophozoite viability; in the data active means activity change below about -80%; inconclusive means between about -30% and that limit;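 further: parasites exposed to compound for two days anaerobically before the ATP read; on the % scale 0 is the no-effect control and ±100 the full control effect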
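Giardia lamblia trophozoites (100 cells/well) were incubated with compounds for 48 h at 37 deg C under anaerobic conditions. Viability was read as ATP content by one-step luminescence after 15-30 min at room temperature.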
PINK1 modulator: PINK1 expression modulation; PINK1 immunofluorescence, high-content cytometry, 24 h; Potency, µM (top dose mostly 76.6 µM), without a hit: top-dose activation (PINK1 increase), usual class: activators; hit rate 0.2% among 410,000; AID 624263; active means well fitted activation curve with a large enough effect; inconclusive means small, poorly fitted or top-dose-only effect; cell line not stated here; further: potency means the concentration at half of the fitted maximal effect; % of control where 0% means no effect; nearly all actives have a fitted effect of over 65% in size
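PINK1 protein, normally rapidly degraded, was detected by immunofluorescence after 24 hour compound treatment of a stable cell line. Titration data (5 concentrations) came from laser-scanning cytometry, with CCCP-treated wells as controls.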
ERG Ets-DNA blk: blocks human ERG Ets domain binding to DNA; AID 624246; fluorescence polarization, His-ERG Ets domain / labelled DNA; Potency, µM (doses to about 76.9 µM), without a hit: at the top dose FP activity, negative = inhibition, actives largely listed as inhibitors; hit rate 0.028% among 370,000; P11308; active means well fitted inhibition curve with a large enough effect in the polarisation, with a control signal flat; inconclusive means small, poorly fitted or top-dose-only effect, or effect the other way, or a change in a side signal; inactive means no such curve, though single readings can be large or run the other way; the % refers to the polarisation;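 further: polarization taken with two DNA probes labelled with fluorescein and Texas red; potency means the concentration at half of the fitted maximal effect; % of control where 0% means no effect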
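His-tagged ERG Ets domain (1 uM in the protein solution; 300mM KCl, 50mM Tris-HCl, 1mM EDTA, 1mM DTT, pH 7.5) received compound, then a probe mix of 5 nM fluorescein-DNA and 100nM Texas-615-DNA. Fluorescence polarization was read for both dyes.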
The depositor's hits bear a star; i = inactive; ? = inconclusive; nt = no result given; [ ] = dose if it differs, or a comment. Unless noted, the call rests on the fitted dose curve; in most records, active means well fitted curve in the direction sought with a large enough effect; inconclusive means small, poorly fitted or top-dose-only effect, or another doubt; inactive means no such curve, though single readings can be large; an effect the other way counts as inactive or inconclusive.

SMILES	ALOX12 inh	miR-21 FLuc	PTHR1 ag	Giardia killer	PINK1 modulator	ERG Ets-DNA blk
Cc1ccc(C(=O)NC(=S)NNC(=O)c2ccccc2[N+](=O)[O-])cc1	32µM*	-23%	-1%	7	-2%	-15%
Cc1cc(C(=O)NC(=S)Nc2cccc(C(=O)O)c2C)ccc1[N+](=O)[O-]	20µM*	-6%	i	2	1%	0%
Cc1cccc(C(=O)NNC(=S)NC(=O)c2ccccc2)c1	122%	nt	-13%	-25	0%	-1%
O=C(NNC(=S)NC(=O)c1ccccc1[N+](=O)[O-])c1ccccc1[N+](=O)[O-]	-17%[57.4 µM]	-1%	i	-4	3%[38.3 µM]	nt
O=C(NNC(=S)NC(=O)c1ccccc1[N+](=O)[O-])c1ccccc1O	-7%	13%	-11%	-6	28µM*	-2%
Cc1cc(C(=O)NNC(=S)NC(=O)c2ccccc2)cs1	28µM*	nt	nt	nt	nt	nt
COC(=O)c1cc2occc2n1Cc1nc(-c2ccccc2Cl)oc1C	?	-5%	i	24	8%	-3%
N#Cc1ccccc1COC(=O)c1ccc(OC(F)F)cc1	5%	nt	nt	nt	nt	nt
CSc1ccc(CN2CCC(Cc3ccccc3)CC2)cc1	1.6µM*	10%	i	46	17%	-6%
COc1cc(OC)c(CN2CCC(Cc3ccccc3)CC2)cc1Br	1µM*	18%	i	14	?	23%
COc1ccccc1CN1CCC(Cc2ccccc2)CC1	0.56µM*	nt	nt	nt	nt	nt
COc1ccc(OC)c(CN2CCC(Cc3ccccc3)CC2)c1	?	15%	-13%	10	0%	9%
COc1ccccc1C1CCN(Cc2ccc(C)cc2)CC1	13%	-4%	i	-1	5%	32µM*
CC1CCCN(c2nc(N(C)c3ccccc3)nc(N)c2[N+](=O)[O-])C1 (stereo not given)	-31%	-15%	-23%	27	11%	9%
O=C(c1cc2cc(Cl)ccc2[nH]1)N1CCN(C(=O)c2ccco2)CC1	45µM*	-6%	-15%	-12	3%	-2%
COc1ccc(-c2cc3ncc(C(=O)c4cc(Cl)ccc4O)cn3n2)cc1	-6%	nt	nt	nt	nt	nt
CNC(=O)CCn1ncc2cc(OCc3ccccc3-c3ccc(F)cc3C)ccc21	63µM*	nt	nt	nt	nt	nt
COc1ccc(F)cc1-c1ccc(COc2ccc3c(cnn3CCC(=O)O)c2)cc1	35µM*	nt	nt	nt	nt	nt
COc1ccc(S(=O)(=O)N(CC(=O)Nc2ccc(OC)cc2OC)c2ccc(Cl)cc2)cc1	-28%	17%	-8%	nt	0%	3%
CCOc1cc2c(cc1NC(=O)c1cc(C)ccc1OC)OC(C)C2 (stereo not given)	9%	nt	nt	nt	nt	nt
CCOc1cc2c(cc1NC(=O)CCC(=O)c1ccc(C)cc1)OC(C)C2 (stereo not given)	4.5µM*	nt	nt	nt	nt	nt
Cc1cc(C)c(CC(=O)O)c(C)c1	1.6µM*	nt	nt	nt	nt	nt
Cc1cc(CC(=O)O)c(C)cc1CC(=O)O	-2%	0%	-2%[57.5 µM]	5	1%	3%
CCCCN(Cc1ccccc1)c1ccc(NS(=O)(=O)c2ccc(C(C)=O)cc2)cc1C(=O)O	4.5µM*	nt	nt	nt	nt	nt
CCCCN(CC)c1ccc(NS(=O)(=O)c2ccc(C(C)=O)cc2)cc1C(=O)O	-80%	nt	nt	nt	nt	nt

More compounds follow.
SMILES	ALOX12 inh	miR-21 FLuc	PTHR1 ag	Giardia killer	PINK1 modulator	ERG Ets-DNA blk
CCCCN(Cc1ccccc1)c1ccc(NS(=O)(=O)c2ccc(C(C)(C)C)cc2)cc1C(=O)O	14µM*	nt	nt	nt	nt	nt
CN(/N=C/c1ccc([N+](=O)[O-])o1)c1ccccc1	?	-18%	i	?	1%	1%
CN(C)/N=C/c1ccc(P(c2ccc(/C=N/N(C)C)o2)c2ccc(/C=N/N(C)C)o2)o1	40µM*	2%	i	-4	1%	-4%
CCOC(=O)c1cc(S(=O)(=O)Nc2ccc(OCc3ccccc3)cc2)[nH]n1	8.9µM*	nt	nt	nt	nt	nt
COCCN(CCOC)Cc1cc(=O)oc2cc(C)c(C)cc12	14µM*	nt	i	nt	1%	nt
CCCN(CCC)Cc1cc(=O)oc2cc(OC)c(Cl)cc12	32µM*	nt	-17%	nt	3%	nt
CC(=O)NC1C(=O)N(CCN2CCOCC2)c2ccc(Br)cc21 (stereo not given)	32µM*	6%	i	-18	3%	-14%
CCOc1ccc2c(c1)C(NC(C)=O)C(=O)N2CCN1CCOCC1 (stereo not given)	0%	-1%	i	-5	1%	1%
Cn1c(-c2ccsc2)c(-c2cccs2)c2cc(-c3cccc4[nH]ccc34)ccc21	9%	nt	i	15	6%	-8%
Cc1nc2scc(-c3ccccc3)c2c(=O)n1N=C1C=CC(=O)C=C1	2.8µM*	-63%	-41%	-8	2%	1%
Cc1nc2scc(-c3ccccc3)c2c(=O)n1N	1%	-1%	-25%[57.5 µM]	4	-2%	5%
O=C(/C=C/c1ccc(-c2ccccc2Cl)o1)c1ccc2ccccc2c1	1µM*	nt	nt	nt	nt	nt
O=C(/C=C/c1ccc(-c2ccccc2Cl)o1)c1ccc(F)cc1	11µM*	nt	nt	nt	nt	nt
Cc1ccc(C(=O)/C=C/c2ccc(-c3ccccc3Cl)o2)cc1	7.1µM*	nt	nt	nt	nt	nt
O=C(/C=C/C=C/c1ccco1)c1ccc(N2CCOCC2)cc1	5µM*	nt	nt	nt	nt	nt
COC(=O)N/N=C/c1ccc(-c2ccccc2Cl)o1	?	-29%	-9%	-3	1%	2%
Cc1cc(C)cc(Nc2cc(C(=O)NCCCN(C)C3CCCCC3)c3ccccc3n2)c1	?	?	0%	nt	-1%	4%
O=C(/C=C/c1ccc(-c2ccccc2[N+](=O)[O-])o1)c1ccccc1	-9%	-5%	i	-27	-2%	9%
O=C(C=Cc1ccco1)c1ccc2ccccc2c1	18µM*	nt	-19%	22	-4%	7%
Cc1ccc(C(=O)/C=C/c2ccc(-c3ccccc3Br)o2)cc1	1.1µM*	nt	nt	nt	nt	nt
Cc1ccc(C(=O)N/N=C\c2ccc(-c3ccc(Cl)c(Cl)c3)o2)cn1	0%	-2%	?	-2	-1%	5%
O=C(/C=C/c1ccc(-c2ccc(Cl)c(Cl)c2)o1)c1ccc(Br)cc1	13µM*	nt	nt	nt	nt	nt
COc1cccc(S(=O)(=O)N(C)C[C@@H]2OCc3cnnn3CCCC(=O)N([C@H](C)CO)C[C@@H]2C)c1	6%	nt	-15%	nt	1%	nt
N#Cc1ccc(NC(=O)CNc2cc(S(=O)(=O)N3CCCCC3)ccc2N2CCCCC2)cc1	16µM*	nt	nt	nt	nt	nt
O=C(COc1ccc([N+](=O)[O-])cc1)Nc1cc(S(=O)(=O)N2CCCCC2)ccc1N1CCCCC1	40µM*	nt	-21%	-1	?	1%
O=C(COc1ccc(F)cc1)Nc1cc(S(=O)(=O)N2CCCCC2)ccc1N1CCCCC1	6.3µM*	nt	-21%	-6	3%	6%

One compound at a time, from the list above.
O=C(C=Cc1ccco1)c1ccc2ccccc2c1 is listed with ALOX12 inh = 18µM*; miR-21 FLuc = nt; PTHR1 ag = -19%; Giardia killer = 22; PINK1 modulator = -4%; ERG Ets-DNA blk = 7%
CCOC(=O)c1cc(S(=O)(=O)Nc2ccc(OCc3ccccc3)cc2)[nH]n1 is listed with ALOX12 inh = 8.9µM*; miR-21 FLuc = nt; PTHR1 ag = nt; Giardia killer = nt; PINK1 modulator = nt; ERG Ets-DNA blk = nt

Part of the list above, comma-delimited.
SMILES,ALOX12 inh,miR-21 FLuc,PTHR1 ag,Giardia killer,PINK1 modulator,ERG Ets-DNA blk
O=C(/C=C/c1ccc(-c2ccccc2Cl)o1)c1ccc(F)cc1,11µM*,nt,nt,nt,nt,nt
O=C(/C=C/c1ccc(-c2ccccc2Cl)o1)c1ccc2ccccc2c1,1µM*,nt,nt,nt,nt,nt
